The text below walks through data of patent US20060165603A1, “Solubilisation of drugs in hfa propellant by means of emulsions” (Chiesi Farmaceutici S.p.A., priority 2002, published 2006).

This data set can be described thus: Photon Correlation Spectroscopy (PCS) microemulsion particle size. Type of data set: physicochemical. The settings on record: L64 10%, EtOH 20%, water 5%, salbutamol sulphate 25 μg/dose (per 50 μl metering volume). As for the experimental part:
For the microemulsions, the samples have been characterised by dynamic light scattering also known as Photon Correlation Spectroscopy to detect the presence of the droplets of the internal phase. Formulation metering performance was evaluated by determining the emitted dose and drug delivery performance was evaluated via Anderson Cascade Impaction (ACI) measurements according to the method described in Apparatus 2, EP 3rd Edition 1999 supplement, section 2.9.18, Aerosol assessment of fine particles.
Photon Correlation Spectroscopy (PCS) characterization of the Synerionic L64 based microemulsions was carried out and the results are shown in Table 4.

The substance salbutamol sulphate showed a Microemulsion particle size of 10.0 nm.
